Experimental findings from patent US20220218834A1, “APOHEMOGLOBIN-HAPTOGLOBIN COMPLEXES AND METHODS OF USING THEREOF” (OHIO STATE INNOVATION FOUNDATION, priority 2019, published 2022) are described below.

A short description of the experiment: Specificity of Al-PC binding to proteins (UV-visible absorbance at 680 nm). Conditions: absorbance at 680 nm after Al-PC addition in PBS. The method, then: Optimization of EtOH Addition to ApoHb. The stock Al-PC solution was diluted 100× into 100% EtOH.
The concentrations of Hp, HSA, Hb and rHb in solution were 1.0 mg/mL, 0.35 mg/ml (and 3.5 mg/ml), 0.35 mg/mL, and 0.33 mg/mL respectively.

As for “HSA: human serum albumin [reference compound]”, the Al-PC binding entry was “almost no binding to Al-PC”.
